Assay results reported in PubChem BioAssay (NCI).
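48-hour exposure; five concentrations; linearly interpolated endpoints. The concentration for full growth arrest is given as TGI.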

Tests used:
Experiment in all cases: NCI tumour cell line growth inhibition, 48 h
[1] = system: CAKI-1 renal
[2] = system: NCI-H23 lung
[3] = system: SK-MEL-2 melanoma
[4] = system: NCI-H226 lung
[5] = system: HOP-92 NSCLC
[6] = system: DLD-1 colon
[7] = system: OVCAR-4 ovarian
[8] = system: U251 CNS
[9] = system: MALME-3M melanoma
[10] = system: OVCAR-5 ovarian
[11] = system: OVCAR-8 ovarian
[12] = system: M14 melanoma
[13] = system: UACC-62 melanoma
[14] = system: RXF 393 renal
[15] = system: UACC-257 melanoma
[16] = system: HOP-62 NSCLC
[17] = system: SNB-75 CNS
[18] = system: SK-MEL-5 melanoma
[19] = system: SR leukemia
[20] = system: NCI-H460 lung
[21] = system: SF-268 CNS
[22] = system: LOX IMVI melanoma
[23] = system: NCI-H322M lung
[24] = system: LXFL 529 NSCLC
[25] = system: DMS 273 small cell lung
[26] = system: COLO 205 colon
[27] = system: TK-10 renal
[28] = system: HT29 colon
[29] = system: KM12 colon
[30] = system: KM20L2 colon
[31] = system: OVCAR-3 ovarian
[32] = system: RXF-631 renal
[33] = system: SK-OV-3 ovarian
[34] = system: EKVX NSCLC
[35] = system: A498 renal
[36] = system: K-562 leukemia
[37] = system: DMS 114 small cell lung
[38] = system: HCT-15 colon
[39] = system: M19-MEL melanoma
[40] = system: MOLT-4 leukemia
[41] = system: SK-MEL-28 melanoma
[42] = system: 786-0 renal
[43] = system: SF-539 CNS
[44] = system: SW-620 colon
[45] = system: HCC-2998 colon
[46] = system: HOP-18 NSCLC
[47] = system: HCT-116 colon
[48] = system: SF-295 CNS
[49] = system: HL-60(TB) leukemia
[50] = system: SNB-19 CNS
[51] = system: ACHN renal
[52] = system: CCRF-CEM leukemia
[53] = system: SN12C renal
[54] = system: UO-31 renal
[55] = system: IGROV1 ovarian
[56] = system: A549 NSCLC
[57] = system: NCI-H522 lung

Measured: TGI

CN(C)C(=O)Oc1ccc(/C=N/O)[n+](C)c1
> 100 µM: [1] | [2] | [3] | [4] | [5] | [6] | [7] | [8] | [9] | [10] | [11] | [12] | [13] | [14] | [15] | [16] | [17] | [18] | [19] | [20] | [21] | [22] | [23] | [24] | [25] | [26] | [27] | [28] | [29] | [30] | [31] | [32] | [33] | [34] | [35] | [36] | [37] | [38] | [39] | [40] | [41] | [42] | [43] | [44] | [45] | [46] | [47] | [48] | [49] | [50] | [51] | [52] | [53] | [54] | [55] | [56] | [57]
